Legend:
Cyclooxygenase-1 (COX-1) = Cyclooxygenase-1 (COX-1) (Homo sapiens, UniProt P23219); experiment: Inhibition of cyclooxygenase-1 (COX-1) activity in human platelets (thromboxane B2 ELISA); format: cell-based; settings: read-out: COX-1 (μM), results expressed as IC50 values, 50 μM arachidonic acid, mean of three independent experiments
Cyclooxygenase-2 (COX-2) = Cyclooxygenase-2 (COX-2) (Homo sapiens, UniProt P35354); experiment: Inhibition of cyclooxygenase-2 (COX-2) activity in HUV-EC-C cell line (prostaglandin E2 ELISA); format: cell-based; settings: for Ratio COX-1:COX-2: ratio of IC50 COX-1 (platelets) to IC50 COX-2 (HUV-EC-C); for IC50: read-out: COX-2 (μM), results expressed as IC50 values, PMA/TPA-induced HUV-EC-C cells, 50 μM arachidonic acid, mean of three independent experiments
[1] = test system: adjuvant arthritis (Mycobacterium tuberculosis in paraffin oil, hind paw); experiment: Anti-inflammatory activity (adjuvant arthritis), hind paw volume; settings: 1 mg/kg p.o. once daily for 7 days (days 14-20), paw volume on day 21

Amino acid sequences for entries named in this document (tags omitted). Residues count along the entry.
UniProt P23219, 24-599 limits assumed: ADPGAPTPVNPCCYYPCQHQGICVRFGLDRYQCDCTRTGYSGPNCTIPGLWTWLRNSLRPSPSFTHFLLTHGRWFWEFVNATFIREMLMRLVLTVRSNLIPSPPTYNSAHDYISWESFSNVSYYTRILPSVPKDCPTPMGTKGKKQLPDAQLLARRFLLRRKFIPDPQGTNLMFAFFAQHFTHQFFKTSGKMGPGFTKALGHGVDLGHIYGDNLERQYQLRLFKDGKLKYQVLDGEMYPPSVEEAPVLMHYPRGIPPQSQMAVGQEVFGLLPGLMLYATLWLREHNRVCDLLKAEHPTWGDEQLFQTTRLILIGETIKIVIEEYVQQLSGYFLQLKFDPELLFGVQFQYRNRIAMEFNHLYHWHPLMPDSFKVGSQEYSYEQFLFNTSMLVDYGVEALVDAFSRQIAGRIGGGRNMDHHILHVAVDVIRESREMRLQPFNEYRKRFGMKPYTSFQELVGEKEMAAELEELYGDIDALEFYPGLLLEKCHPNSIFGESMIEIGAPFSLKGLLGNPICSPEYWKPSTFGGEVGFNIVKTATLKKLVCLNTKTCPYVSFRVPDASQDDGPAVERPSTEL
UniProt P35354, 18-604 limits assumed: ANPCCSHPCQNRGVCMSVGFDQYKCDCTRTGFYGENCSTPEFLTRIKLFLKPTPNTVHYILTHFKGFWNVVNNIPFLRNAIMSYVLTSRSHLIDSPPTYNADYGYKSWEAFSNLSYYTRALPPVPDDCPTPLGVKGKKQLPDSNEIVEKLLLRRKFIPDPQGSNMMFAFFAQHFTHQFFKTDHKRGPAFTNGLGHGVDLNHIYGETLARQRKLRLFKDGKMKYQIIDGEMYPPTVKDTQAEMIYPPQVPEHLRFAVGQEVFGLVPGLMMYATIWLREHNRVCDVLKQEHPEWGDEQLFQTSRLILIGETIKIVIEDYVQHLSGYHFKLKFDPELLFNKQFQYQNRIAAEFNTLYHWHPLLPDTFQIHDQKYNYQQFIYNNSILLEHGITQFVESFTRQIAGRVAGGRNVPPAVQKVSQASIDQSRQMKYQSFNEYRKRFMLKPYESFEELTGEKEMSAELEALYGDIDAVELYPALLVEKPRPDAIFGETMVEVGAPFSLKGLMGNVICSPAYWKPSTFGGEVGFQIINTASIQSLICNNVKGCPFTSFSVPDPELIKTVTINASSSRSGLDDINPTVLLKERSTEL

| Compound | IC50 (Cyclooxygenase-1 (COX-1)) | Ratio COX-1:COX-2 (Cyclooxygenase-2 (COX-2)) | IC50 (Cyclooxygenase-2 (COX-2)) | % Inhibition (dose, mg/kg) [1] |
| --- | --- | --- | --- | --- |
| CS(=O)(=O)c1ccc(-c2coc(=O)n2-c2ccc(Cl)c(Cl)c2)cc1 | 27.9 µM | 3487 | 0.008 µM |  |
| CS(=O)(=O)c1ccc(-c2coc(=O)n2-c2ccc3ccccc3c2)cc1 | > 100 µM | >3333 | 0.03 µM |  |
| CS(=O)(=O)c1ccc(-c2coc(=O)n2-c2ccc(F)cc2F)cc1 | > 100 µM |  |  |  |
| NS(=O)(=O)c1ccc(-c2coc(=O)n2-c2ccc(Cl)cc2)cc1 | 4.6 µM |  |  | 62 (1) % |
